Values of other authors in PMC9786748, “Carvacrol and HP-β-Cyclodextrin Complexes: Extensive Characterization and Potential Cytotoxic Effect in Human Colorectal Carcinoma Cells” (Pharmaceutics, 2022).

Experiments:
[1] = parameters: method as in PMID 25298799; conditions: with CRYSMEB; cited from earlier work
[2] = parameters: method as in PMID 25298799; conditions: with HP-β-CDs; cited from earlier work
[3] = parameters: method as in PMID 25298799; conditions: with RAMEB; cited from earlier work

isoeugenol
CE (complexation efficiency) [1]: 1.26 | CE (complexation efficiency) [2]: 1.82 | CE (complexation efficiency) [3]: 1.73

Like-named read-outs stand apart in the source and are kept apart here.
